Laboratory results from US20140100156A1 (SANOFI, priority 2012, published 2014).
Where two headings read alike, the source gives them in different places.

Protein sequences, listed by entry. Tags and fused reporters are not part of them. Residues count along the entry.
UniProt P43220, 24-463: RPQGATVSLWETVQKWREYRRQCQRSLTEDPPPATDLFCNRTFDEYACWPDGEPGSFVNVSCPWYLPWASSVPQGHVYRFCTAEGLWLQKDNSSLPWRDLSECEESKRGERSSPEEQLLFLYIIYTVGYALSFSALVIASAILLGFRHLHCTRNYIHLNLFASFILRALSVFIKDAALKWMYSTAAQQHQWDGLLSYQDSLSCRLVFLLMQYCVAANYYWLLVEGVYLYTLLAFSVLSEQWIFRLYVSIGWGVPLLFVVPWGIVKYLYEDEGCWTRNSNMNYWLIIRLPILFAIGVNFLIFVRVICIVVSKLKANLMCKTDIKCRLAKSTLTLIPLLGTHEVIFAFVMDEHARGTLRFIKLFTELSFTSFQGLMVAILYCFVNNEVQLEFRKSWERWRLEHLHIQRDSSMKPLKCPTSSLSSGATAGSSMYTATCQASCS
UniProt P47871, 26-477: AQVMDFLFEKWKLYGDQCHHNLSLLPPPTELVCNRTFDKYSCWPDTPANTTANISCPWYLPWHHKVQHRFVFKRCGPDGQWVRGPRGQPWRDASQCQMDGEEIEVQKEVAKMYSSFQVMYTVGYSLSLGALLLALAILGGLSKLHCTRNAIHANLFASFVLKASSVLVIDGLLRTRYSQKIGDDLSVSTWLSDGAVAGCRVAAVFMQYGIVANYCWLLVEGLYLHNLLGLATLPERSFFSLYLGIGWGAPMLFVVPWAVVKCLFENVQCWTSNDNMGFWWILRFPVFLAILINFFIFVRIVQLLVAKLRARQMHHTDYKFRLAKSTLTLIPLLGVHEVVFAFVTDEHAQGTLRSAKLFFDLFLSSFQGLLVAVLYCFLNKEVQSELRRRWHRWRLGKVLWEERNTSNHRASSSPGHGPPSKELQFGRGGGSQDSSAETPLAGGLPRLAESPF

Experiments:
human GLP-1 receptor = biological target: T1, human GLP-1 receptor (Homo sapiens, UniProt P43220); experiment: cAMP response (HTRF) of HEK-293 cells stably expressing human GLP-1 receptor; assay type: cell-based; conditions: read-out: EC50 hGLP-1R
T1 construct: expressed in transfected cells; host or cells: HEK-293

human glucagon receptor = biological target: T2, human glucagon receptor (Homo sapiens, UniProt P47871); experiment: cAMP response (HTRF) of HEK-293 cells stably expressing human glucagon receptor; assay type: cell-based; conditions: read-out: EC50 hGlucagon-R
T2 construct: expressed in transfected cells; host or cells: HEK-293

physchem = assay type: physicochemical
Procedure: Prior to the testing of solubility and stability of a peptide batch, its content was determined. Therefore, two parameters were investigated, its purity (HPLC-UV) and the amount of salt load of the batch (ion chromatography). Since synthesized peptides contain primarily trifluoroacetate anions, only anion chromatography was performed.
. Therefore, solutions from solid samples were prepared in different buffer systems with a concentration of 1.0 mg/mL compound based on the previously determined content. HPLC-UV was performed after 2 h of gentle agitation from the supernatant, which was obtained by 20 min of centrifugation at 4000 rpm.
This analysis also served as starting point (t0) for the stability testing.
Instrument: Agilent 1100, column: X-Bridge C18 3.5 μm 2.1×150 mm (Waters), eluent: A: H20+500 ppm TFA/B: Methanol, flow: 0.55 mL/min, gradient: 0-5 min: 10-60% B; 5-15 min: 60-99% B; detection: 214 nm.

[1] = Table 8, comparison testing of position 14

SMILES | EC50 (human GLP-1 receptor; Table 5, cAMP, HEK-293) | EC50 (human glucagon receptor; Table 5, cAMP, HEK-293) | solubility at 2 h (physchem; pH 4.5) | solubility at 2 h (physchem; pH 7.4) | EC50 (human GLP-1 receptor; [1]) | EC50 (human glucagon receptor; [1])
CCCCCCCCCCCCCCCC(=O)N[C@@H](CCC(=O)NCCCC[C@H](NC(=O)[C@H](CCC(N)=O)NC(=O)[C@H](CCCCN)NC(=O)[C@H](CO)NC(=O)[C@H](CC(C)C)NC(=O)[C@H](CC(=O)O)NC(=O)[C@H](CO)NC(=O)[C@@H](NC(=O)[C@H](Cc1ccccc1)NC(=O)[C@@H](NC(=O)CNC(=O)[C@H](CCC(N)=O)NC(=O)C(C)(C)NC(=O)[C@@H](N)Cc1c[nH]cn1)[C@@H](C)O)[C@@H](C)O)C(=O)N[C@@H](CCC(=O)O)C(=O)N[C@@H](CO)C(=O)N[C@@H](CCCCN)C(=O)N[C@@H](C)C(=O)N[C@@H](C)C(=O)N[C@@H](CCC(N)=O)C(=O)N[C@@H](CC(=O)O)C(=O)N[C@@H](Cc1ccccc1)C(=O)N[C@H](C(=O)N[C@@H](CCC(=O)O)C(=O)N[C@@H](Cc1c[nH]c2ccccc12)C(=O)N[C@@H](CC(C)C)C(=O)N[C@@H](CCCCN)C(=O)N[C@@H](C)C(=O)NCC(=O)NCC(=O)N1CCC[C@H]1C(=O)N[C@@H](CO)C(=O)N[C@@H](CO)C(=O)NCC(=O)N[C@@H](C)C(=O)N1CCC[C@H]1C(=O)N1CCC[C@H]1C(=O)N1CCC[C@H]1C(=O)N[C@@H](CO)C(N)=O)[C@@H](C)CC)C(=O)O [compound 25] | 4.2 pM | 40.6 pM | > 1000 µg/mL | > 1000 µg/mL |  | 
CCCCCCCCCCCCCCCC(=O)NCCCC[C@H](NC(=O)[C@H](CCC(N)=O)NC(=O)[C@H](CCCCN)NC(=O)[C@H](CO)NC(=O)[C@H](CC(C)C)NC(=O)[C@H](CC(=O)O)NC(=O)[C@H](CO)NC(=O)[C@@H](NC(=O)[C@H](Cc1ccccc1)NC(=O)[C@@H](NC(=O)CNC(=O)[C@H](CCC(N)=O)NC(=O)[C@@H](CO)NC(=O)[C@@H](N)Cc1c[nH]cn1)[C@@H](C)O)[C@@H](C)O)C(=O)N[C@@H](CCC(=O)O)C(=O)N[C@@H](CO)C(=O)N[C@@H](CCCNC(=N)N)C(=O)N[C@@H](C)C(=O)N[C@@H](C)C(=O)N[C@@H](CCC(N)=O)C(=O)N[C@@H](CC(=O)O)C(=O)N[C@@H](Cc1ccccc1)C(=O)N[C@H](C(=O)N[C@@H](CCC(=O)O)C(=O)N[C@@H](Cc1c[nH]c2ccccc12)C(=O)N[C@@H](CC(C)C)C(=O)N[C@@H](CCCCN)C(=O)N[C@@H](C)C(=O)NCC(=O)NCC(=O)N1CCC[C@H]1C(=O)N[C@@H](CO)C(=O)N[C@@H](CO)C(=O)NCC(=O)N[C@@H](C)C(=O)N1CCC[C@H]1C(=O)N1CCC[C@H]1C(=O)N1CCC[C@H]1C(=O)N[C@@H](CO)C(N)=O)[C@@H](C)CC [compound 66] | 8.4 pM | 113 pM | > 1000 µg/mL | > 1000 µg/mL |  | 
CCCCCCCCCCCCCCCC(=O)N[C@@H](CCC(=O)NCCCC[C@H](NC(=O)[C@H](CCC(N)=O)NC(=O)[C@H](CCCCN)NC(=O)[C@H](CO)NC(=O)[C@H](CC(C)C)NC(=O)[C@H](CC(=O)O)NC(=O)[C@H](CO)NC(=O)[C@@H](NC(=O)[C@H](Cc1ccccc1)NC(=O)[C@@H](NC(=O)CNC(=O)[C@H](CCC(N)=O)NC(=O)[C@@H](CO)NC(=O)[C@@H](N)Cc1c[nH]cn1)[C@@H](C)O)[C@@H](C)O)C(=O)N[C@@H](CCC(=O)O)C(=O)N[C@@H](CO)C(=O)N[C@@H](CCCNC(=N)N)C(=O)N[C@@H](C)C(=O)N[C@@H](C)C(=O)N[C@@H](CCC(N)=O)C(=O)N[C@@H](CC(C)C)C(=O)N[C@@H](Cc1ccccc1)C(=O)N[C@H](C(=O)N[C@@H](CCC(=O)O)C(=O)N[C@@H](Cc1c[nH]c2ccccc12)C(=O)N[C@@H](CC(C)C)C(=O)N[C@@H](CCCCN)C(=O)N[C@@H](C)C(=O)NCC(=O)NCC(=O)N1CCC[C@H]1C(=O)N[C@@H](CO)C(=O)N[C@@H](CO)C(=O)NCC(=O)N[C@@H](C)C(=O)N1CCC[C@H]1C(=O)N1CCC[C@H]1C(=O)N1CCC[C@H]1C(=O)N[C@@H](CO)C(N)=O)[C@@H](C)CC)C(=O)O [compound 70] | 6.5 pM | 40.9 pM | > 1000 µg/mL | > 1000 µg/mL |  | 
CCCCCCCCCCCCCCCC(=O)N[C@@H](CCC(=O)NCCCC[C@H](NC(=O)[C@H](CCC(N)=O)NC(=O)[C@H](CCCCN)NC(=O)[C@H](CO)NC(=O)[C@H](CC(C)C)NC(=O)[C@H](CC(=O)O)NC(=O)[C@H](CO)NC(=O)[C@@H](NC(=O)[C@H](Cc1ccccc1)NC(=O)[C@@H](NC(=O)CNC(=O)[C@H](CCC(N)=O)NC(=O)[C@@H](CO)NC(=O)[C@@H](N)Cc1c[nH]cn1)[C@@H](C)O)[C@@H](C)O)C(=O)N[C@@H](CCC(=O)O)C(=O)N[C@@H](CO)C(=O)N[C@@H](CCCNC(=N)N)C(=O)N[C@@H](CCCNC(=N)N)C(=O)N[C@@H](C)C(=O)N[C@@H](CCC(N)=O)C(=O)N[C@@H](CC(=O)O)C(=O)N[C@@H](Cc1ccccc1)C(=O)N[C@H](C(=O)N[C@@H](CCC(=O)O)C(=O)N[C@@H](Cc1c[nH]c2ccccc12)C(=O)N[C@@H](CC(C)C)C(=O)N[C@@H](CCCCN)C(=O)N[C@@H](CCC(=O)O)C(=O)NCC(=O)NCC(=O)N1CCC[C@H]1C(=O)N[C@@H](CO)C(=O)N[C@@H](CO)C(=O)NCC(=O)N[C@@H](CCCNC(=N)N)C(=O)N1CCC[C@H]1C(=O)N1CCC[C@H]1C(=O)N1CCC[C@H]1C(=O)N[C@@H](CO)C(N)=O)[C@@H](C)CC)C(=O)O [compound 82] | 11.7 pM | 4.7 pM | > 1000 µg/mL | > 1000 µg/mL |  | 
CC[C@H](C)[C@H](NC(=O)[C@H](Cc1ccccc1)NC(=O)[C@H](CC(C)C)NC(=O)[C@H](CCCNC(=N)N)NC(=O)[C@H](C)NC(=O)[C@H](C)NC(=O)[C@H](CCC(=O)O)NC(=O)[C@H](CCC(=O)O)NC(=O)[C@H](CC(=O)O)NC(=O)[C@H](CC(C)C)NC(=O)[C@H](CCC(N)=O)NC(=O)[C@H](CCCCN)NC(=O)[C@H](CO)NC(=O)[C@H](CC(C)C)NC(=O)[C@H](CC(=O)O)NC(=O)[C@H](CO)NC(=O)[C@@H](NC(=O)[C@H](Cc1ccccc1)NC(=O)[C@@H](NC(=O)CNC(=O)[C@H](CCC(N)=O)NC(=O)C(C)(C)NC(=O)[C@@H](N)Cc1c[nH]cn1)[C@@H](C)O)[C@@H](C)O)C(=O)N[C@@H](CCC(=O)O)C(=O)N[C@@H](Cc1c[nH]c2ccccc12)C(=O)N[C@@H](CC(C)C)C(=O)N[C@@H](CCCCN)C(=O)N[C@@H](C)C(=O)NCC(=O)NCC(=O)N1CCC[C@H]1C(=O)N[C@@H](CO)C(=O)N[C@@H](CO)C(=O)NCC(=O)N[C@@H](C)C(=O)N1CCC[C@H]1C(=O)N1CCC[C@H]1C(=O)N1CCC[C@H]1C(=O)N[C@@H](CO)C(N)=O [compound 224] |  |  |  |  | 1.3 pM | 2930 pM
CCCCCCCCCCCCCCCC(=O)N[C@@H](CCC(=O)N[C@@H](CCC(=O)NCCCC[C@H](NC(=O)[C@H](CCC(N)=O)NC(=O)[C@H](CCCCN)NC(=O)[C@H](CO)NC(=O)[C@H](CC(C)C)NC(=O)[C@H](CC(=O)O)NC(=O)[C@H](CO)NC(=O)[C@@H](NC(=O)[C@H](Cc1ccccc1)NC(=O)[C@@H](NC(=O)CNC(=O)[C@H](CCC(N)=O)NC(=O)C(C)(C)NC(=O)[C@@H](N)Cc1c[nH]cn1)[C@@H](C)O)[C@@H](C)O)C(=O)N[C@@H](CC(=O)O)C(=O)N[C@@H](CCC(=O)O)C(=O)N[C@@H](CCC(=O)O)C(=O)N[C@@H](C)C(=O)N[C@@H](C)C(=O)N[C@@H](CCCNC(=N)N)C(=O)N[C@@H](CC(C)C)C(=O)N[C@@H](Cc1ccccc1)C(=O)N[C@H](C(=O)N[C@@H](CCC(=O)O)C(=O)N[C@@H](Cc1c[nH]c2ccccc12)C(=O)N[C@@H](CC(C)C)C(=O)N[C@@H](CCCCN)C(=O)N[C@@H](C)C(=O)NCC(=O)NCC(=O)N1CCC[C@H]1C(=O)N[C@@H](CO)C(=O)N[C@@H](CO)C(=O)NCC(=O)N[C@@H](C)C(=O)N1CCC[C@H]1C(=O)N1CCC[C@H]1C(=O)N1CCC[C@H]1C(=O)N[C@@H](CO)C(N)=O)[C@@H](C)CC)C(=O)O)C(=O)O [compound 226] | 1.4 pM | 19.1 pM |  |  |  | 
CCCCCCCCCCCCCCCC(=O)N[C@@H](CCC(=O)N[C@@H](CCC(=O)NCCCC[C@H](NC(=O)[C@H](CCC(N)=O)NC(=O)[C@H](CCCCN)NC(=O)[C@H](CO)NC(=O)[C@H](CC(C)C)NC(=O)[C@H](CC(=O)O)NC(=O)[C@H](CO)NC(=O)[C@@H](NC(=O)[C@H](Cc1ccccc1)NC(=O)[C@@H](NC(=O)CNC(=O)[C@H](Cc1c[nH]cn1)NC(=O)C(C)(C)NC(=O)[C@@H](N)Cc1c[nH]cn1)[C@@H](C)O)[C@@H](C)O)C(=O)N[C@@H](CC(=O)O)C(=O)N[C@@H](CCC(=O)O)C(=O)N[C@@H](CCC(=O)O)C(=O)N[C@@H](C)C(=O)N[C@@H](C)C(=O)N[C@@H](CCCNC(=N)N)C(=O)N[C@@H](CC(C)C)C(=O)N[C@@H](Cc1ccccc1)C(=O)N[C@H](C(=O)N[C@@H](CCC(=O)O)C(=O)N[C@@H](Cc1c[nH]c2ccccc12)C(=O)N[C@@H](CC(C)C)C(=O)N[C@@H](CCCCN)C(=O)N[C@@H](C)C(=O)NCC(=O)NCC(=O)N1CCC[C@H]1C(=O)N[C@@H](CO)C(=O)N[C@@H](CO)C(=O)NCC(=O)N[C@@H](C)C(=O)N1CCC[C@H]1C(=O)N1CCC[C@H]1C(=O)N1CCC[C@H]1C(=O)N[C@@H](CO)C(N)=O)[C@@H](C)CC)C(=O)O)C(=O)O [compound 227] | 1.4 pM | 1.1 pM |  |  |  | 
